Consider 1 compound from ChEMBL document CHEMBL2396616, “Development and characterization of a promising fluorine-18 labelled radiopharmaceutical for in vivo imaging of fatty acid amide hydrolase” (Bioorg Med Chem, 2013).

By UniProt entry, the sequences of proteins in these tests, tags left out.
UniProt P97612, whole entry: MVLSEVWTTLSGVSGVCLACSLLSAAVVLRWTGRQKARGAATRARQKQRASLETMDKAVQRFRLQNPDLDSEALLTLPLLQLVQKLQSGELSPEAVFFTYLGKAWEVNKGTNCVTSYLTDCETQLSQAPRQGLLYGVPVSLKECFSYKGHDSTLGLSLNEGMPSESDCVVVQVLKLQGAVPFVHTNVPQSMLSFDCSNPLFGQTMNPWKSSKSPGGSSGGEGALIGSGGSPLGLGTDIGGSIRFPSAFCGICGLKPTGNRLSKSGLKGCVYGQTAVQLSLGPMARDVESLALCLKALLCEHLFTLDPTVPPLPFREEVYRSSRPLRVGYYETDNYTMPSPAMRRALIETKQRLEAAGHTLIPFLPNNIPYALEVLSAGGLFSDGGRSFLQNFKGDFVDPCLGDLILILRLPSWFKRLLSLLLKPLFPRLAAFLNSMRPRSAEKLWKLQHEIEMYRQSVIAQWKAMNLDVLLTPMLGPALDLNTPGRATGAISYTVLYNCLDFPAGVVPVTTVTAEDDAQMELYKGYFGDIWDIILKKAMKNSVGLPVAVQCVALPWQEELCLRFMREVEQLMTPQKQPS

Calls of active or inactive are those of the source. The calls are words filed in the database; no cut-off is given here.

The test deals with Fatty-acid amide hydrolase 1 (Rattus norvegicus) (UniProt P97612). Kind of test: Irreversible inhibition of FAAH in rat brain homogenates using [3H]anandamide as substrate. It counts as tissue-based.

In the case of `O=C(NCCCCCF)Oc1cccc(C2=NCCO2)c1`, the inhibition entry was “Active”.
